How the values were obtained:
[1] = test system: HBV infected primary human hepatocytes (PHH); assay: HBV replication in infected primary human hepatocytes (PHH), FXR agonist +/- IFN-alpha; format: cell-based; settings: treated day 4 to 10 post-infection, harvested day 10, GW4064 1 or 10 uM, IFN-alpha 100 IU/mL
Protocol: FIG. 3. […] Freshly prepared and seeded PHH were infected with HBV at a multiplicity of infection of 250 GE/cell. From day 4 to 10 post-infection, cells were treated with […], +/−IFN-alpha at 100 IU/mL, or vehicle (NT), or IFN-alpha at 100 IU/mL alone. Cells and supernatants were harvested at day 10 for intracellular HBV RNA, viremia, and secreted antigens (HBsAg and HBeAg) quantification. Results are the mean+/−SD of one experiment performed with three biological replicates.
FIG. 4. […] Freshly prepared and seeded PHH were infected with HBV at a multiplicity of infection of 250 GE/cell. From day 4 to 10 post-infection, cells were treated with Vonafexor at 10 uM, or Nidufexor at 10 uM, or Tropifexor at 1 uM, or OCA at 10 uM, or GW4064 at 10 uM, +/−IFN-alpha (IFN) at 100 IU/mL, or vehicle, or IFN-alpha at 100 IU/mL alone. Supernatants were harvested at day 10 for secreted HBs antigen (HBsAg) quantification. Results are the mean+/−SEM of five experiments performed with three replicates.
Supernatants containing HBV particles were clarified (0.45 μm filter) and concentrated with 8% PEG 8000 (Sigma-Aldrich).
HBV DNA was quantified using the AmpliPrep/COBAS® TaqMan® HBV Test (Roche).
HBs and HBe antigens secreted in cells supernatant were quantified, after required dilutions, with Autobio kits (AutoBio, China) according to manufacturer's protocol.
Total RNA was prepared using NucleoSpin RNA Plus (Macherey-Nagel). After DNA digestion with TURBO DNase (Ambion), maximum 1000 ng RNA were reverse-transcribed using High-Capacity RNA-to-cDNA kit (Thermo Fisher Scientific). […] All assays were performed in triplicate.
HBs antigen secreted in cells supernatant were quantified, after required dilutions, with Autobio kits (AutoBio, China) according to manufacturer's protocol.
PHH are naturally susceptible to infection with HBV virions produced in vitro, leading to very high levels of replication of the virus.

[2] = test system: HBV; assay: 4-week treatment course in HBV chronically infected patients: HBV replication markers (pgRNA, HBcrAg, HBsAg); format: in vivo, human; settings: change from baseline at day 29; Placebo + weekly sub-cutaneous Peg-IFN

Substance	HBeAg secretion [1]	HBsAg secretion [1]	intracellular HBV RNA level [1]	viremia [1]	HBVpgRNA Mean [2] [Log10 Copies mL]	HBcrAg Mean [2] [Log10 IU mL]
IFN-α: Interferon alpha-2 (ROFERON-A) purchased from Roche	able to reduce	almost no effect	almost no effect	able to reduce		
Placebo + Peg-IFN: pegylated IFNα2a, weekly sub-cutaneous injections, given with placebo					−0.2	−0.4

From patent publication US20240100125A1 (ENYO PHARMA, priority 2021, published 2024)
